The chains behind the UniProt entries cited, without tags or fusion partners. Where a name states a change or a piece, a line headed by the entry shows the natural chain unless it says otherwise.
UniProt P11309, whole entry: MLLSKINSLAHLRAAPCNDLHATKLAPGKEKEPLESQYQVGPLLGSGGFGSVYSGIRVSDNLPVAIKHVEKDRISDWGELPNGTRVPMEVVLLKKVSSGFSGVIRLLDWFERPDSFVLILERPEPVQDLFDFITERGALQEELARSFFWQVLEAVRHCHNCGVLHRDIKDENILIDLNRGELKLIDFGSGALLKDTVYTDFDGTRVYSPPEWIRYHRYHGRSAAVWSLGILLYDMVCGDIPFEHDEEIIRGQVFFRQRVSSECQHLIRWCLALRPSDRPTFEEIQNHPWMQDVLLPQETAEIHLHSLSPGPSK
UniProt Q9P1W9: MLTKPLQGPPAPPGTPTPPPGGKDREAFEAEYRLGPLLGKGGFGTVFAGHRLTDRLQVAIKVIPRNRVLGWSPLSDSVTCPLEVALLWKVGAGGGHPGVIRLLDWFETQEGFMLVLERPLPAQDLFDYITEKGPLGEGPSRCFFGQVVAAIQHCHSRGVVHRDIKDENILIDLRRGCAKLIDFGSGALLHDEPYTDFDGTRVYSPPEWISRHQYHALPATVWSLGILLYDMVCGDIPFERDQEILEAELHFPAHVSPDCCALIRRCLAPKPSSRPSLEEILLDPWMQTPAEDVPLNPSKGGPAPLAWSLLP

In patent publication US9394297B2, “Amides as pim inhibitors” (AMGEN INC., priority 2012, dated 2016):

Columns and labels:
Format in all cases: biochemical
Pim-1 [1] = molecular target: T1, Pim-1 (Homo sapiens (Human), UniProt P11309); test: Pim enzyme assay (HTRF, 96-well), Pim-1; conditions: full length recombinant Pim-1, biotinylated-BAD (S112) peptide, 10-point curve, 2 h RT, read-out: Pim-1 IC50 IP
Pim-2 [2] = molecular target: T2, Pim-2 (Homo sapiens (Human), UniProt Q9P1W9); test: Pim enzyme assay (HTRF, 96-well), Pim-2; conditions: full length recombinant Pim-2, biotinylated-BAD (S112) peptide, 10-point curve, 45 min RT, read-out: Pim-2 IC50 IP
Pim-2 [3] = molecular target: T2, Pim-2; test: Pim-Mn enzyme assay (HTRF, 384-well), Pim-2; conditions: Pim-2 enzyme 0.5 pM, ATP 1.5 μM, BAD (S112) 0.5 μM, 22-point curve, read-out: Pim-2-Mn IC50 IP
Pim-1 [4] = molecular target: T1, Pim-1; test: Pim-Mn enzyme assay (HTRF, 384-well), Pim-1; conditions: Pim-1 enzyme 5 pM, ATP 1.5 μM, BAD (S112) 0.5 μM, 22-point curve, read-out: Pim-1-Mn IC50 IP

SMILES | IC50 (Pim-1 [1]) [nM] | IC50 (Pim-2 [2]) [nM] | IC50 (Pim-2 [3]) [nM] | IC50 (Pim-1 [4]) [nM]
Cc1nc2cccc(-c3cc4c([nH]3)CCNC4=O)c2nc1NC1CCC(=O)NC1 (racemic) [Example 199, rac-2-(2-methyl-3-((6-oxopiperidin-3-yl)amino)quinoxalin-5-yl)-6,7-dihydro-1H-pyrrolo[3,2-c]pyridin-4(5H)-one] | 28.2 | 50 | 26.2 | –
Cc1cc2cccc(-c3cc4c([nH]3)CCNC4=O)c2nc1Oc1ccccc1 [Example 104, 2-(3-methyl-2-phenoxyquinolin-8-yl)-6,7-dihydro-1H-pyrrolo[3,2-c]pyridin-4(5H)-one] | 9.3 | 9 | – | –
Cc1nc2cccc(-c3cc4n(c3)CCNC4=O)c2nc1NC1CC1 [Example 233, 7-(3-(cyclopropylamino)-2-methylquinoxalin-5-yl)-3,4-dihydropyrrolo[1,2-a]pyrazin-1(2H)-one 2,2,2-trifluoroacetate] | – | 16.4 | 6.9 | –
Cc1nc2cccc(-c3cc4c([nH]3)CCNC4=O)c2nc1NC1CCCOC1 (racemic) [Example 198, rac-2-(2-methyl-3-((tetrahydro-2H-pyran-3-yl)amino)quinoxalin-5-yl)-6,7-dihydro-1H-pyrrolo[3,2-c]pyridin-4(5H)-one] | 6.8 | 8.7 | – | 3.6
CCC1CNC(=O)c2cc(-c3cccc4ccc(Oc5ccccc5)nc34)[nH]c21 (racemic) [Example 23, rac-7-ethyl-2-(2-phenoxyquinolin-8-yl)-6,7-dihydro-1H-pyrrolo[3,2-c]pyridin-4(5H)-one] | – | 53.6 | – | –
Cc1nc2cccc(-c3cc4c([nH]3)CCNC4=O)c2nc1NC1CCCCCC1 [Example 134, 2-(3-(cycloheptylamino)-2-methylquinoxalin-5-yl)-6,7-dihydro-1H-pyrrolo[3,2-c]pyridin-4(5H)-one] | – | 13.9 | – | –
CC(=O)N[C@@H]1CC[C@@H]1Nc1nc2c(-c3cc4c([nH]3)CCNC4=O)cccc2nc1C (single isomer, unassigned) [Example 58, N-(cis-2-((3-methyl-8-(4-oxo-4,5,6,7-tetrahydro-1H-pyrrolo[3,2-c]pyridin-2-yl)-2-quinoxalinyl)amino)cyclobutyl)acetamide] | – | – | 180 | 60
CCC1CNC(=O)c2cc(-c3cccc4ccc(Cl)nc34)[nH]c21 (racemic) [Example 22, rac-2-(2-chloroquinolin-8-yl)-7-ethyl-6,7-dihydro-1H-pyrrolo[3,2-c]pyridin-4(5H)-one] | – | 248 | – | –
